The results in this text go back to patent US12295963B2, “Treating pain associated with diabetic peripheral neuropathy” (MEDICON PHARMACEUTICALS, INC., priority 2021, dated 2025).

Series [1] deals with mechanical allodynia in STZ-induced DPN rats. The series can be described thus: Treatment of neuropathic pain in STZ-induced rat model of DPN, paw withdrawal threshold (von Frey filaments). It counts as in vivo, Sprague-Dawley rats. The settings on record: treatment protocol from week 4, sulindac 0.7% hydrogel topical 3 times a day for 1 week (PWT week 5), lidocaine 5% cream once 30 min before PWT, pregabalin 10 mg/kg oral once 1 h before PWT. As to the method:
DPN was induced via chemically-induced increases in blood glucose in rats, using streptozotocin (STZ). This is a well-established model for DPN (see Morrow, Current Protocols in Neuroscience (2004); 29(1): 1-11), in which the STZ, an antibiotic extract from Streptomyces acromogenes, selectively damages the β cells of the pancreas.
Sprague-Dawley rats were fasted for 4-6 hours before being injected intraperitoneally with 45 mg/kg STZ. This was performed for all experimental groups, except the naïve group. In order to prevent hypoglycaemic death, rats received 10% sucrose water as the sole water source for the first 48 hours after injection. In order to ensure only those rats considered diabetic (i.e., having non-fasting plasma glucose levels of >250 mg/dL) were included in the study, blood glucose was measured at 72 hours after the STZ injection.
This delay between STZ injection and treatment allows the establishment of chronic pain (allodynia) associated with peripheral and central sensitisation. PS (as an 8% hydrogel) or vehicle control were administered topically to both hind paws of the rats 3 times a day for 3 weeks starting at week 4 after STZ injection. […]
In order to determine the outcome of the treatment, mechanical allodynia was measured using the well-established method of von Frey filaments. […] The results of the PWT test are expressed as force applied (gm). […]

Series [2] is described as follows: Pharmacokinetics and biodistribution of PS and its metabolites after topical administration to hind paws. As to the method: PS 8% ointment was applied topically to each hind paw (50 μl per paw) with gentle rubbing. At 0.5, 1, 3, 5, 12, 18, and 24 h, mice (n=4-5 mice/time point) were euthanized with CO2 inhalation. Blood was drawn immediately after death. Tissues, including paw skin, paw muscle, leg muscle, the sciatic nerve and lumbar DRG bilaterally were dissected quickly, immediately frozen in liquid nitrogen and stored at −80° C. until analyzed.
Following addition of acetonitrile (twice the volume of the homogenate), the mixture was sonicated for 10 min, centrifuged at 13,200 rpm for 15 min, and analyzed by HPLC, as reported (Wen et al., 2019).
Since the metabolism and PK/biodistribution of PS vary depending on its route of administration, we studied both in normal mice in which PS was administered topically to their hind paws, with particular attention to the sciatic nerve and the dorsal root ganglia (DRG) that are affected in DPN.

As for `CC(C)C[C@H](CN)CC(=O)O` [pregabalin], the “PWT, gm Mean ± SEM” value in series [1] is recorded as 27.3 ± 1.7 gm.
With `CC1=C(CC(=O)O)c2cc(F)ccc2/C1=C\c1ccc([S+](C)[O-])cc1` (stereo not shown) [sulindac], the “detection as metabolite of PS” value in series [2] (mouse tissues and blood after PS 8% ointment topical, HPLC, limit of quantitation 0.05 μM) was “detected”. The “sulindac levels relative to those of PS” value was “equal” in series [2] (mouse, in vivo) and “higher” in series [2] (sciatic nerve, compared with around 25% in the other tissues, result in words).
